{"sequences": {"note": "The chains behind the UniProt entries cited, without tags or fusion partners. Residues count along the entry.", "UniProt Z9NKG6IF05, 1-492": "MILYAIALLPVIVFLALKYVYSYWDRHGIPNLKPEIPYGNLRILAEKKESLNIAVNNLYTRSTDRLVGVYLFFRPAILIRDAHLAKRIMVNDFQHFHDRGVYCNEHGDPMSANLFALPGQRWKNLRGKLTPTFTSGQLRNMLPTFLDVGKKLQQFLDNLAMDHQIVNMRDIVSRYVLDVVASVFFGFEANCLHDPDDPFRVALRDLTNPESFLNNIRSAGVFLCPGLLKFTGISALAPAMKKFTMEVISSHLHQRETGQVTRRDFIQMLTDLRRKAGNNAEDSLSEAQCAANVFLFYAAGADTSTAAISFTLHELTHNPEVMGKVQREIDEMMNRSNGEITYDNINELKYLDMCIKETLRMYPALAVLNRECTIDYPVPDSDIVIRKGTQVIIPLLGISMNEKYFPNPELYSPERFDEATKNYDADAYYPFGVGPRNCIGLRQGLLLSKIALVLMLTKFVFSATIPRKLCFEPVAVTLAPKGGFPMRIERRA"}, "source": "paper PMC4950264", "about": "(Molecular Ecology, 2016)", "target": "CYP6Z1 (Anopheles funestus, UniProt Z9NKG6IF05)", "assay": "fluorescent probe O-dealkylation kinetics, recombinant membranes", "settings": "NADPH regenerating system", "data": [{"smiles": "CCOc1ccc2c(c1)Oc1cc(OCC)ccc1C21OC(=O)c2ccccc21", "values": [{"measurement": "Km", "result": 0.13, "unit": "µM"}]}]}
